In patent US10023593B2, “ALK kinase inhibitor, and preparation method and uses thereof” (BEIJING PEARL BIOTECHNOLOGY LIMITED LIABILITY COMPANY, priority 2014, dated 2018):

Tests used:
NCI-H2228 cell line = test: CellTiter-Glo cell proliferation inhibition on NCI-H2228 cell line; format: cell-based; conditions: Homo sapiens, NCI-H2228, 96 h, NCI-H2228 cells, 5000 cells/well, 4 days drug treatment
Experimental: 3. Cell Proliferation Inhibitory Activities of the Compounds of the Present Invention on NCI-H2228 Cell Line
? experimental method ? CellTiter-Glo® Luminescent Cell Viability Assay kit from Promega company was used to detect cell proliferation inhibitory activities of the compounds on NCI-H2228 cell line.
(§1) ? instrument ? Envision 2104 plate reader from PerKinElmer company; Vi-Cell XR cell counter from Beckman Counter company; MCO-18AIC CO2 incubator from SANYO company.
? experiment material ? CellTiter-Glo® Luminescent Cell Viability Assay Kit (Promega company, catalog No. G7573); NCI-H2228 cell line (ATCC, catalog No. CRL-5935); RPMI-1640 medium (HyClone company, catalog No. SH30809.01B); fetal bovine serum (FBS) (Gibco company, catalog No. 10099-141); trypsin (Trypsin) (Gibco company, catalog No. 25200-072); PBS (HyClone company, catalog No. SH30256.01B); 96 wells cell culture plate (Corning company, catalog No. 3610); DMSO (AMRESCO company, catalog No. 0231); 96 wells plates (for diluting compounds) (CITOTEST company, catalog No. Ref36020096D);
? experimental condition ? NCI-H2228 cells in exponential growth phase were collected and treated with trypsin (Trypsin), and viable cells were counted by Vi-Cell XR cell counter. Cell suspension was adjusted to 62500 cells/ml with culture medium (RPMI-1640+10% FBS). 80 μl cell suspension was added into each well of 96 wells cell culture plate so that the final cell number of NCI-H2228 cells was 5000 cells/well. […] After placing at room temperature for 10 minutes, luminescence value was measured by PerkinElmer Envision 2104 plate reader and the data was analyzed. […]
? data analysis ? Luminescence value of DMSO solvent control (Vvehicle control, which is the mean luminescence value from DMSO solvent control group)
(§2) Tested luminescence value (Vsample, which is the luminescence value from given concentration of compounds group) Inhibition rate (%)=(1−Vsample/Vvehicle control)×100
(§3) ? data processing ? IC50 of compounds was calculated by using XLfit program in Excel.

Karpas-299 cell line = test: CellTiter-Glo cell proliferation inhibition on Karpas-299 cell line; format: cell-based; conditions: Homo sapiens, 96 h, Karpas-299 cells, 5000 cells/well, 4 days drug treatment
Experimental: 4. Cell Proliferation Inhibitory Activities of the Compounds of the Present Invention on Karpas-299 Cell Line
? experimental method ? CellTiter-Glo® Luminescent Cell Viability Assay kit from Promega company was used to detect cell proliferation inhibitory activities of the compounds on Karpas-299 cell line.
as §1
? experiment material ? […]
? experimental condition ? Karpas-299 cells in exponential growth phase were collected and viable cells were counted by Vi-Cell XR cell counter. […] After placing at room temperature for 10 minutes, luminescence reading value was measured with PerkinElmer Envision 2104 plate reader and the data was analyzed. […]
Luminescence value of DMSO solvent control (Vvehicle control, which is the mean luminescence value from DMSO solvent control group)
as §2, §3

IC50 (NCI-H2228 cell line) [nM] | IC50 (Karpas-299 cell line) [nM] | Compound
96 | – | Cc1cc(Nc2ncc(Cl)c(Nc3cn(C)nc3S(=O)(=O)C(C)C)n2)c(OC(C)C)cc1C1CCN(C)CC1 [Final product 80]
52 | – | Cc1cc(Nc2ncc(Cl)c(Nc3cn(C)nc3S(=O)(=O)C(C)C)n2)c(OC2CC2)cc1C1CCN(C)CC1 [Final product 51]
– | 17 | CC(C)S(=O)(=O)c1nn(C)cc1Nc1nc(Nc2cc(F)c(C3CCN(C)CC3)cc2OC2CC2)ncc1Cl [Final product 44]
58 | – | Cc1cc(Nc2ncc(Cl)c(Nc3cn(C)nc3S(=O)(=O)C(C)C)n2)c(OC2CC2)cc1C1CCN(C(C)C)CC1 [Final product 123, 5-chloro-N^2-[2-cyclopropoxy-4-(1-isopropylpiperidin-4-yl)-5-methyl-phenyl]-N^4-[1-methyl-3-(isopropylsulfonyl)-1H-pyrazol-4-yl]-pyrimidin-2,4-diamine]
